Screens as filed in PubChem BioAssay.
G9a inh: inhibitors of human histone lysine methyltransferase G9a | G9a H3K9 monomethylation, AlphaScreen, 2 h | Potency, µM (doses to about 102 µM), usual class: inhibitors | 8.8% of 350,000 active | AID 504332; further: nearly all actives have a fitted effect of over 75% in size
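Compounds were preincubated with 20 nM G9a for 15 min, after which biotinylated H3K9 peptide (500 nM) and SAM (20 uM) started a 2 h room-temperature reaction. Monomethylated product was quantified by antibody-based AlphaScreen chemiluminescence.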
miR-21 reporter: miR-21 reporter, rising signal | AID 2288 | HeLa miR-21 FLuc reporter, luciferase, 48 h | 340,000 tested, under 10 active | Potency, µM (doses to about 38.3 µM); active = well fitted rising curve with a large enough effect; inconclusive = small, poorly fitted or top-dose-only effect; inactive = no such curve, though single readings can be large or run the other way;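 note: miR-21 action dims this reporter so a rising signal means less miR-21 action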
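HeLa cells stably expressing CMV-driven firefly luciferase with a downstream miR-21 binding sequence, endogenously expressing miR-21, were treated with titrations (up to about 40uM final) for 48 hours at 37 degree Celsius. Luciferase luminescence was read after lysis.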
ALDH1A1 inh: blocks purified human ALDH1A1 activity; Potency, µM (doses to about 75.3 µM), usual class: inhibitors; Purified ALDH1A1, NADH fluorescence, propionaldehyde substrate; P00352; 7.3% of 220,000 active; active means well fitted inhibition curve with a large enough effect, not every such curve was filed as active; inconclusive means small, poorly fitted or top-dose-only effect, or another doubt; inactive means no such curve, though single readings can be large or run the other way
Sfp inh: inhibitors of Bacillus subtilis Sfp phosphopantetheinyl transferase. Q9F4F7. Biochemical Sfp PPTase activity, qHTS. Potency, µM, hits mostly inhibitors. 3.5% of 310,000 active;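 further: the enzyme is Sfp with the accession as filed and its product quenches rhodamine fluorescence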
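Sfp 15 nM + cpd, 15 min RT; start w/ rhodamine-CoA 5 uM, BHQ-2-YbbR 12.5 uM (final); 50 mM Hepes pH 7.6, 10 mM MgCl2, 0.01% NP-40, 0.01% BSA; read 525/598 nm at 0 and 30 min.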
Lamin A splicing: LMNA splicing modulation | 0.01% of 200,000 active | HeLa LMNA splicing GFP/RFP minigene ratio, 48 h | AID 1487 | Potency, µM (series often up to 46.1 µM), hits mostly inhibitors; active means well fitted inhibition curve with a large enough effect in the signal ratio, with a control signal flat, not every such curve was filed as active; inconclusive means small, poorly fitted or top-dose-only effect, or effect the other way, or a change in a side signal; the % refers to the signal ratio
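Read-out is the ratio of GFP to DsRed2 object intensity, acquired by 488 nm laser-scanning cytometry on HeLa lamin A-EGFP minigene reporter cells. Compound incubation 48 hrs at 37 °C in Opti-MEM with 2% FBS; DMSO 0.5% final.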
KDM4E inh: blocks human JMJD2E demethylase activity. B2RXH2. JMJD2E catalytic domain, FDH-coupled NADH fluorescence (FDH is formaldehyde dehydrogenase). Potency, µM (highest dose often 57.1 µM), usual class: inhibitors. 1.6% of 230,000 active; active means well fitted inhibition curve with a large enough effect, not every such curve was filed as active; inconclusive means small, poorly fitted or top-dose-only effect, or another doubt; inactive means no such curve, though single readings can be large or run the other way; further: nearly all actives have a fitted effect of over 50% in size
Hits are given with their value; [ ] = remark or other dose. An excerpt weighted towards active compounds, which were near 13% of everything screened. Unless noted, the call rests on the fitted dose curve; in most records, active means well fitted curve in the direction sought with a large enough effect; inconclusive means small, poorly fitted or top-dose-only effect, or another doubt; inactive means no such curve, though single readings can be large; an effect the other way counts as inactive or inconclusive.

Results for Cc1ccc(N(CCC#N)C(=O)COC(=O)c2ccccn2)cc1 ?
miR-21 reporter: inactive; Sfp inh: inactive

What do the screens show for `Cc1ccc(S(=O)(=O)N2CCC(C(=O)OCC(=O)N(CCC#N)c3ccc(F)cc3)CC2)cc1C`?
G9a inh: inactive

How did Cn1cccc1C(NC(=O)c1ccccc1)C(Cl)(Cl)Cl (stereo not given) do in these assays?
G9a inh: 44.7µM; miR-21 reporter: inactive; Sfp inh: inactive

How did CC1CN(C(NC(=O)c2ccccc2)C(Cl)(Cl)Cl)CC(C)O1 (stereo not given) do in these assays?
G9a inh: inactive; miR-21 reporter: inactive; ALDH1A1 inh: inactive; Sfp inh: inactive; KDM4E inh: inactive

How did Cc1ccc2c(C)ccc(O)c2n1 do in these assays?
G9a inh: 3.55µM; miR-21 reporter: inactive; ALDH1A1 inh: inactive; Sfp inh: 44.7µM; Lamin A splicing: inactive; KDM4E inh: inactive

Results for C[C@H]1CN(CCO)CCN1c1ccccc1 ?
ALDH1A1 inh: inactive[13.5 µM]

What do the screens show for `CCOc1ccc(C(O)c2nccn2Cc2ccccc2)cc1` (stereo not given)?
G9a inh: inconclusive; miR-21 reporter: inactive; ALDH1A1 inh: inactive; Sfp inh: inactive; Lamin A splicing: inconclusive; KDM4E inh: inactive

How did CCn1ccnc1C(O)c1ccc(N(C)C)cc1 (stereo not given) do in these assays?
G9a inh: 31.6µM; miR-21 reporter: inactive; ALDH1A1 inh: inactive; Sfp inh: inactive; Lamin A splicing: inactive; KDM4E inh: inactive

How did O=C(NC1CCCCCC1)C(=S)NCc1ccccc1 do in these assays?
G9a inh: inactive; miR-21 reporter: inactive; ALDH1A1 inh: 25.1µM; Sfp inh: 56.2µM; KDM4E inh: inactive

Results for O=C(NC1CCCCCC1)C(=S)NCCc1ccccc1 ?
miR-21 reporter: inactive; ALDH1A1 inh: 11.2µM; Sfp inh: 14.1µM; KDM4E inh: inactive

What do the screens show for `CNC(=S)N(C1=NCC(c2ccc([N+](=O)[O-])cc2)S1)c1ccccc1` (stereo not given)?
G9a inh: 35.5µM; miR-21 reporter: inactive; Sfp inh: inactive

What do the screens show for `Cc1ccc2onc(CNC(=O)N3CCN(c4cccc(C)c4C)CC3)c2c1`?
G9a inh: inactive; miR-21 reporter: inactive

Results for Cn1c(=O)[nH]c(=O)c2c1nc(Br)n2CCSc1nnnn1-c1ccccc1 ?
G9a inh: inactive; miR-21 reporter: inactive; ALDH1A1 inh: inactive; Sfp inh: inactive; Lamin A splicing: inactive; KDM4E inh: inactive

Results for CN1CCN(c2nc3c(c(=O)[nH]c(=O)n3C)n2CCCSc2nnnn2-c2ccccc2)CC1 ?
G9a inh: 25.1µM; miR-21 reporter: inactive; ALDH1A1 inh: 22.4µM; Sfp inh: inactive; Lamin A splicing: inactive; KDM4E inh: inactive

How did Cn1c(=O)[nH]c(=O)c2c1nc(N1CCCCC1)n2CCCSc1nnnn1-c1ccccc1 do in these assays?
G9a inh: inactive; miR-21 reporter: inactive; ALDH1A1 inh: 7.94µM; Sfp inh: inactive; Lamin A splicing: inactive; KDM4E inh: inactive

Results for CC1CCN(c2nc3c(c(=O)[nH]c(=O)n3C)n2CC(C)CSc2nnnn2-c2ccccc2)CC1 (stereo not given) ?
G9a inh: inactive; miR-21 reporter: inactive; ALDH1A1 inh: 20µM; Sfp inh: inactive; Lamin A splicing: inactive; KDM4E inh: inactive

What do the screens show for `CN1CCN(c2nc3c(c(=O)[nH]c(=O)n3C)n2Cc2ccccc2)CC1`?
G9a inh: inactive; miR-21 reporter: inactive; Sfp inh: inactive

What do the screens show for `COc1ccccc1CC(=O)Nc1ncc(C)s1`?
G9a inh: inactive; miR-21 reporter: inactive; Sfp inh: inactive

How did O=C(Cn1nnc(-c2ccc([N+](=O)[O-])cc2)n1)NNC(=O)c1ccccc1 do in these assays?
G9a inh: inactive; miR-21 reporter: inactive; Sfp inh: inactive

What do the screens show for `Cc1cccc(NS(=O)(=O)c2cccc(C(=O)NCCCN3CCOCC3)c2)c1`?
G9a inh: inactive

What do the screens show for `COc1ccc(/C=N/NC(=S)NC2CCS(=O)(=O)C2)cc1OC` (stereo not given)?
miR-21 reporter: inactive; ALDH1A1 inh: inactive; Sfp inh: 56.2µM; Lamin A splicing: inactive; KDM4E inh: inactive

What do the screens show for `Cc1cc(C)c(C#N)c(SCC(=O)OC2CCCCC2)n1`?
G9a inh: inactive; miR-21 reporter: inactive; ALDH1A1 inh: 28.2µM; Sfp inh: inactive; Lamin A splicing: inactive; KDM4E inh: inconclusive

How did CCOC(=O)CCc1c(C)nc(SCC(=O)O)c(C#N)c1C do in these assays?
G9a inh: 8.91µM; miR-21 reporter: inactive; ALDH1A1 inh: 25.1µM; Sfp inh: 79.4µM; Lamin A splicing: inactive; KDM4E inh: inactive

How did CC(C)OC(=O)CSc1nc(N)c(C#N)c(-c2ccco2)c1C#N do in these assays?
G9a inh: inconclusive; miR-21 reporter: inactive; ALDH1A1 inh: inconclusive; Sfp inh: 56.2µM; Lamin A splicing: inactive; KDM4E inh: inconclusive

Results for Cc1c(-c2ccccc2)nc(N)c(C#N)c1-c1ccco1 ?
G9a inh: inconclusive; miR-21 reporter: inactive; ALDH1A1 inh: inconclusive; Sfp inh: 14.1µM; Lamin A splicing: inactive; KDM4E inh: inactive

Results for CCOC(=O)CCc1c(C)nc(SCc2ccc(C(=O)O)cc2)c(C#N)c1C ?
G9a inh: inactive; miR-21 reporter: inactive; Sfp inh: inactive

What do the screens show for `CC(C)OC(=O)CSc1nc(N)c(C#N)cc1C#N`?
G9a inh: inactive[12.7 µM]; miR-21 reporter: inactive; ALDH1A1 inh: inconclusive; Sfp inh: inactive; Lamin A splicing: inconclusive; KDM4E inh: inconclusive

What do the screens show for `CC(=O)c1ccc(NC(=O)Cn2ncc3c(C)n(Cc4ccc(F)cc4)c(C)c3c2=O)cc1`?
G9a inh: inactive; miR-21 reporter: inactive

How did COc1ccc(CC(=O)NCc2ccc3c(c2)CCN3C(=O)c2ccccc2)cc1OC do in these assays?
G9a inh: inactive; miR-21 reporter: inconclusive; Lamin A splicing: inactive

How did CCOC(=O)CSc1nc(C)cc(C)c1C#N do in these assays?
G9a inh: inconclusive; miR-21 reporter: inactive; ALDH1A1 inh: 25.1µM; Sfp inh: 56.2µM; Lamin A splicing: inactive; KDM4E inh: inactive

How did CCOC(=O)CSc1nc(C)cc(C)c1C(N)=O do in these assays?
G9a inh: inactive; miR-21 reporter: inactive; ALDH1A1 inh: inactive; Sfp inh: inactive; KDM4E inh: inactive

What do the screens show for `CCOC(=O)CSc1nc(N)c(C#N)c(-c2ccc(OCC)cc2)c1C#N`?
G9a inh: 44.7µM; miR-21 reporter: inactive; ALDH1A1 inh: inconclusive; Sfp inh: inactive; Lamin A splicing: inactive; KDM4E inh: inconclusive

Results for COC(=O)CSc1nc(N)c(C#N)c(-c2ccc(O)cc2)c1C#N ?
G9a inh: inactive; miR-21 reporter: inactive; ALDH1A1 inh: inconclusive; Sfp inh: inactive; KDM4E inh: inactive

Results for Cc1ccc(OCCCC(=O)NC2CCCCC2)cc1 ?
G9a inh: inactive; miR-21 reporter: inactive; Sfp inh: inactive
